Test results as given in ChEMBL document CHEMBL1150265, “(3R,5S,E)-7-(4-(4-fluorophenyl)-6-isopropyl-2-(methyl(1-methyl-1h-1,2,4-triazol-5-yl)amino)pyrimidin-5-yl)-3,5-dihydroxyhept-6-enoic acid (BMS-644950): a rationally designed orally efficacious 3-hydroxy-3-methylglutaryl coenzyme-a reductase inhibitor with reduced myotoxicity potential” (J Med Chem, 2008).

Species: Homo sapiens
Experiment: Metabolic stability in human assessed as hepatic extraction
Format: ADME, organism-based
Conditions: in vivo

Activity: > 70%
Structure (SMILES): CC(C)c1c(C(=O)Nc2ccccc2)c(-c2ccccc2)c(-c2ccc(F)cc2)n1CC[C@@H](O)C[C@@H](O)CC(=O)O [ATORVASTATIN]
